Measured values reported in US4032534A, “Certain 2-(2-thioethyl)thiazolidine-4-carboxylic acids” (Ferlus-Chimie S.A., priority 1973, dated 1977).

Assay: in vivo
Conditions: mouse, po

Q: With `CCOC(=O)CSCCC1NC(C(=O)O)CS1` (stereo not shown) [Compound No. 8, 2-[(Ethoxycarbonylmethylthio)-ethyl] thiazolidine 4-carboxylate of diisopropylamine] as the compound, how does the LD50 read?
A: 4000 mg/kg
